One series concerns Vero CCL81 cells. Put plainly: MTT cell viability, Vero CCL81. The class given is cell-based, African green monkey. The following applies: Vero CCL81, CA 25 and 100 µM, 48 h.
A further series concerns Calu-3 cells. Put plainly: MTT cell viability, Calu-3. The format is cell-based, Human. The following applies: Calu-3, CA 25 and 100 µM, 48 h.
Details of series [1]: method as in PMID 14748892, PMID 16524737. The following applies: cited from earlier work.

With L-Chicoric acid, the “cell viability (MTT)” value with Vero CCL81 cells and with Calu-3 cells was “remained viable” each time. Moreover, the cell permeability result in series [1] is on record as “low”.
